Assay results taken from paper PMC3102230 (Chemistry & biology, 2011).

System: E. coli IF2
Details: E. coli 70S ribosomes; 1 μM ThS or 5 μM MiC (Figure 2E)

With `C/C=C(\NC(=O)c1csc(-c2csc(-c3ccc4c(n3)-c3csc(n3)[C@H]([C@@H](C)O)NC(=O)c3csc(n3)[C@H](C(C)C)NC(=O)c3csc(n3)/C(=C/C)NC(=O)[C@H]([C@@H](C)O)NC(=O)c3csc-4n3)n2)n1)C(=O)NC[C@@H](C)O` [MiC, micrococcin] the “effect on rdGTPase activity of IF2” value was “inhibited”.
